Assay results taken from US9029092B2, “Solution phase homogeneous assays” (Beckman Coulter, Inc., priority 2009, dated 2015).

Tested on: PSA
Test: Assay of PSA with dextran scaffold chemiluminescent-labeled sbp with and without SSIA
Assay type: biochemical, human
Settings: PSA 51.0 ng/mL, ascorbic acid as SSIA
Protocol: In this example, one member of a specific binding pair of monoclonal antibodies for PSA is conjugated to a dextran molecule coupled with AK1, as described in Example 10 below, except the antibody is thiolated and covalently-linked to AK11-labeled and maleimide-activated dextran. A second monoclonal PSA antibody was conjugated to HRP, as described above and provided in an aqueous solution at either 0.5 μg/ml, 0.1 μg/ml or 0.03 μg/ml as indicated in the tables below. The assays were performed by placing 25 μl of sample in each of two reaction vessels. To the sample in the first reaction vessel, 25 μl of Ab1 solution, 25 μl of water, 25 μl of Ab2 solution was added and incubated for 15 minutes. In a second reaction vessel 25 μl of Ab1 solution, Ascorbic acid (Sigma, St. Louis, Mo.) in deionized water at the concentrations of 200 or 500 μM (as indicated in the table below), and 25 μl of Ab2 solution were added to 25 μl of sample and incubated for 15 minutes. […] Each sample was analyzed according to the above assay method in triplicate. […] A ratio of signal to noise (S/S0) was calculated at each concentration value. […] Samples of known concentration were prepared as described previously. Each sample was analyzed according to the above method in triplicate.

## O=C1O[C@H]([C@@H](O)CO)C(O)=C1O [Ascorbic Acid]
  S/S0, w/SSIA: 206.2
